Results: paper PMC8237303 (Heliyon, 2021)

Protein sequences, listed by entry. Tags and fused reporters are not part of them.
UniProt P30411, whole entry: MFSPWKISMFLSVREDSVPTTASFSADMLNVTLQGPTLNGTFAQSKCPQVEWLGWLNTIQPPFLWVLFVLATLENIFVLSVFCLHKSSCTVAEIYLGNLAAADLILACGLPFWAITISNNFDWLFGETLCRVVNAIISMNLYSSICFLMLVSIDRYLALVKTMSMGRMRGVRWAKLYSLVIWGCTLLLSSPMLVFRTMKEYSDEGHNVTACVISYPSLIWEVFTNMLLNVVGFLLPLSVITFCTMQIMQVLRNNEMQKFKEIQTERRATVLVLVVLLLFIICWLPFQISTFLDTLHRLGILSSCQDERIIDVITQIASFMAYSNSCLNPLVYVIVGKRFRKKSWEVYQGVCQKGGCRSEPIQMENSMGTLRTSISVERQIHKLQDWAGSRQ
UniProt P25929, whole entry: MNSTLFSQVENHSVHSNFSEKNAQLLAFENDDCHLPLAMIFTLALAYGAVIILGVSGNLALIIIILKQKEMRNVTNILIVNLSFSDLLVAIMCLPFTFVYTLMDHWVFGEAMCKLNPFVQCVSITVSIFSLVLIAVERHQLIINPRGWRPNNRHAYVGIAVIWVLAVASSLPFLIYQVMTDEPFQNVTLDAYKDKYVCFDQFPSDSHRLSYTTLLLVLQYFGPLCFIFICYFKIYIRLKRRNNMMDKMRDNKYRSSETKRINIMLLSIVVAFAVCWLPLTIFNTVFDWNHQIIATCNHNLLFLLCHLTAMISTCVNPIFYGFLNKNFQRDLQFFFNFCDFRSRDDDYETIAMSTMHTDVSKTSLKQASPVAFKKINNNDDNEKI

Experiments:
[1] = biological target: Angiotensin AT1 receptor (Human) (Homo sapiens, UniProt P30556); experiment: [125I]-Angiotensin II; assay type: binding; settings: Human recombinant
[2] = biological target: T1, Angiotensin AT2 receptor (Human) (Homo sapiens, UniProt P50052); experiment: [125I]-CGP-42112A binding assay; settings: Human recombinant
T1 sequence (P50052 1-363): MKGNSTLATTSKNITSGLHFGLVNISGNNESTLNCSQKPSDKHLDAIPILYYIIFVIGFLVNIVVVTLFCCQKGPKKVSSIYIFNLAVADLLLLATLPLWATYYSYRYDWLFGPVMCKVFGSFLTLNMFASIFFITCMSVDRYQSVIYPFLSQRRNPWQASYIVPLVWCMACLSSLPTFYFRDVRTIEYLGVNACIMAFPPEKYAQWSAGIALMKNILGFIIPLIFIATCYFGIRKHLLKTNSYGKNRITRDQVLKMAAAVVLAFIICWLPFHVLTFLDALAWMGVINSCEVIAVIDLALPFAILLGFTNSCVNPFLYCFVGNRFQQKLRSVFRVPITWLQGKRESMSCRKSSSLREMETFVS

[3] = biological target: Bradykinin B2 receptor (Human) (Homo sapiens, UniProt P30411); experiment: [3H]-Bradykinin binding assay; settings: Human recombinant
[4] = biological target: T2, Bradykinin B1 receptor (Human) (Homo sapiens, UniProt P46663); experiment: [3H]-Kallidin; assay type: binding; settings: Human recombinant
T2 sequence (P46663 1-353): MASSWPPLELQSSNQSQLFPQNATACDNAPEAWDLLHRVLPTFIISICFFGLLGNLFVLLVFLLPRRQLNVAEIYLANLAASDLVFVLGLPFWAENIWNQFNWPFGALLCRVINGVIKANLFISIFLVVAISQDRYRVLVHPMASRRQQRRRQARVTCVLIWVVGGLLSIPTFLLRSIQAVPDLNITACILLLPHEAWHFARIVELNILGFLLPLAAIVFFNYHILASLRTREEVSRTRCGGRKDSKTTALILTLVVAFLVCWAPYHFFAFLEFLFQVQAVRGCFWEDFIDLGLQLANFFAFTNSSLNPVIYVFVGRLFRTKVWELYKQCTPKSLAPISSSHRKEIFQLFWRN

[5] = biological target: Neuropeptide Y1 receptor (Human) (Homo sapiens, UniProt P25929); experiment: [125I]-Peptide YY; assay type: binding; settings: Human receptor (Non-recombinant)

In the case of Angiotensin II human, the “Inhibition by a positive control substance (%)” value [1] is reported as 100% and the “Inhibition by a positive substance (%)” value [2] is reported as 100%.

With HOE140 the “Inhibition by a positive substance (%)” value [3] was 94.95%.

“Lys-(des-Arg 9，Leu 8)-Bradykinin trifluoroacetate salt” was tested, and the “Inhibition by a positive substance (%)” value [4] was 100%.

With [Leu 31, Pro 34]-Neuropeptide Y porcine the “Inhibition by a positive substance (%)” value [5] was 99.75%.
